Data taken from PubChem BioAssay (EPA / NIEHS).
Only a part is listed here, and it is no random draw. Results filed as inconclusive are left out. Calls of active or inactive are those of the source. Rule for the calls, unless noted: active = hit-call score of the fitted dose curve at least 0.9, where 1 is the maximum; inactive = score below 0.9.

By UniProt entry, the sequences of proteins in these tests, tags left out.
UniProt P11473, whole entry: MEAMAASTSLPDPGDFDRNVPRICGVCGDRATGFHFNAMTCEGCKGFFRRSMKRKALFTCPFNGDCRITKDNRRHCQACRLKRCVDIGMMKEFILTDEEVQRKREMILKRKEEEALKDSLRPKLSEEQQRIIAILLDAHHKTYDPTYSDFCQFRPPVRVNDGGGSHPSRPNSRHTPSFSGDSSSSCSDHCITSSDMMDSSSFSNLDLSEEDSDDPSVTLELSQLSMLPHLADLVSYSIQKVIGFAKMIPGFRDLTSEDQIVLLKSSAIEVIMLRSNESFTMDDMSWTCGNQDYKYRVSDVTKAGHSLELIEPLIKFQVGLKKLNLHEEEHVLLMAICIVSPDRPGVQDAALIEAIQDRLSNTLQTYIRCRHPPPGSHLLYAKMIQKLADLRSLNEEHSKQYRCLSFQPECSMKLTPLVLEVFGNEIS

Key:
[1] = read-out: Monokine induced gamma interferon (MIG), CXCL9 (gene 4283); test: BSK_3C_MIG: BioMAP Diversity Plus: 3C Assay for Monokine induced gamma interferon (MIG) Biomarker Activity (AID 2283021); conditions: actives raise or lower the signal; primary human endothelial cells (HUVEC)
How it was run: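 Endothelial primary cells (human umbilical vein) are dosed with test chemical in the 3C system. MIG levels are measured by ELISA at 24 h and fitted in both directions relative to DMSO.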

[2] = target: human Vitamin D Receptor (VDR), VDR (gene 7421) (UniProt P11473); test: ATG_VDR_TRANS: Attagene TRANS-FACTORIAL HepG2 Assay for human Vitamin D Receptor (VDR) (AID 2283022; active = hit-call score of the fitted dose curve at least 0.9, where 1 is the maximum)
How it was run: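 Multiplexed TRANS reporter in HepG2; 24 h treatment; reporter mRNA by RT-PCR plus capillary electrophoresis; upregulation scored relative to DMSO.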

[3] = BSK_3C_SRB: Viability Assessment in the BioMAP Diversity Plus: 3C Assay (AID 2283023); conditions: primary human endothelial cells (HUVEC);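 note: fitted both ways against DMSO so a hit may be signal rise or drop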
How it was run: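 Overt cytotoxicity is gauged in parallel confluent HUVEC cultures by SRB total-protein staining at the time of biomarker measurement, 24 h after dosing. Gain or loss of signal is fitted versus DMSO.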

[4] = read-out: Matrix Metallopeptidase 1 (MMP1), MMP1 (gene 4312); test: BSK_BE3C_MMP1: BioMAP Diversity Plus: BE3C Assay for Matrix Metallopeptidase 1 (MMP1) Biomarker Activity (AID 2283024); conditions: actives raise or lower the signal; primary human bronchial epithelial cells
How it was run: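 MMP1 signal, measured by ELISA after a 24 h chemical exposure of human primary bronchial epithelial cells, is analysed with bidirectional fitting using DMSO as negative control.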

[5] = BSK_3C_Vis: BioMAP Diversity Plus: 3C Assay for Morphology Visualization (AID 2283025); conditions: primary human endothelial cells (HUVEC);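 note: fitted both ways so gain or loss versus DMSO counts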
How it was run: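 Morphology read by light microscopy serves as a background control for the multiplexed 3C assay in human umbilical vein endothelial cells, taken 24 h after dosing, with DMSO as the negative control and bidirectional curve fitting.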

[6] = read-out: Pselectin, SELP (gene 6403); test: BSK_4H_Pselectin: BioMAP Diversity Plus: 4H Assay for Pselectin Biomarker Activity (AID 2283026); conditions: actives raise or lower the signal; primary human endothelial cells (HUVEC)
How it was run: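 Endothelial primary cells (human umbilical vein) are dosed, incubated 24 h, and assayed for surface P-selectin by ELISA; responses in either direction are fitted relative to the DMSO negative control.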

[7] = BSK_4H_SRB: Viability Assessment in the BioMAP Diversity Plus: 4H Assay (AID 2283027); conditions: primary human endothelial cells (HUVEC);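 note: cells exposed to compound for 24 h before staining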
How it was run: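 HUVEC, 24 h post-dose; 10% TCA fix, 0.1% SRB stain, A560 nm. Total protein = overt cytotoxicity, parallel to biomarker read. Bidirectional fit vs DMSO baseline.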

[8] = BSK_BE3C_SRB: Viability Assessment in the BioMAP Diversity Plus: BE3C Assay (AID 2283028); conditions: primary human bronchial epithelial cells
How it was run: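 SRB total-protein staining (0.1%, after TCA fixation) of chemically dosed human bronchial epithelial primary cells at 24 h; DMSO serves as the negative control for bidirectional curve fitting.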

[9] = read-out: Thrombomodulin, THBD (gene 7056); test: BSK_3C_Thrombomodulin: BioMAP Diversity Plus: 3C Assay for Thrombomodulin Biomarker Activity (AID 2283029); conditions: actives raise or lower the signal; primary human endothelial cells (HUVEC)
How it was run: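 Endothelial cells from umbilical vein are dosed with test chemical and incubated 24 h. Thrombomodulin is then quantified by ELISA, with DMSO serving as negative control and activity baseline.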

[10] = read-out: Urokinase-type plasminogen activator receptor (uPAR), PLAUR (gene 5329); test: BSK_4H_uPAR: BioMAP Diversity Plus: 4H Assay for Urokinase-type plasminogen activator receptor (uPAR) Biomarker Activity (AID 2283030); conditions: actives raise or lower the signal; primary human endothelial cells (HUVEC)
How it was run: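 Endpoint derived via bidirectional curve fitting against DMSO baseline; readout was ELISA detection of uPAR on umbilical vein endothelial cells at 24 h post-treatment, with SRB-stained parallel cultures assessing cytotoxicity.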

[11] = read-out: Vascular endothelial growth factor receptor 2 (Homo sapiens) (UniProt P35968); test: BSK_4H_VEGFRII: BioMAP Diversity Plus: 4H Assay for Vascular endothelial growth factor receptor 2 (VEGFR2) Biomarker Activity (AID 2283031); conditions: actives raise or lower the signal; primary human endothelial cells (HUVEC)
How it was run: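 In this multiplexed HUVEC system, biomarker ELISA was performed after 24 h chemical exposure. Parallel SRB staining (TCA fixation, 560 nm) tracked cytotoxicity; DMSO served as baseline.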

[12] = read-out: Human Leukocyte Antigen - DR isotype (HLADR), HLA-DRA (gene 3122); test: BSK_BE3C_HLADR: BioMAP Diversity Plus: BE3C Assay for Human Leukocyte Antigen - DR isotype (HLADR) Biomarker Activity (AID 2283032); conditions: actives raise or lower the signal; primary human bronchial epithelial cells
How it was run: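 Chemicals are dosed onto BE3C bronchial epithelial cultures of human origin and left 24 h. HLA-DR is then measured by ELISA, and the endpoint is fitted in both directions using DMSO as the activity baseline.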

[13] = read-out: Vascular cell adhesion molecule 1 (VCAM1), VCAM1 (gene 7412); test: BSK_4H_VCAM1: BioMAP Diversity Plus: 4H Assay for Vascular cell adhesion molecule 1 (VCAM1) Biomarker Activity (AID 2283033); conditions: actives raise or lower the signal; primary human endothelial cells (HUVEC)
How it was run: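 Chemicals are added to primary human umbilical vein endothelial cells. After 24 h, VCAM-1 levels are measured by ELISA. Values come from bidirectional fitting referenced to DMSO.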

[14] = read-out: Interferon-gamma inducible Protein 10 (IP10), CXCL10 (gene 3627); test: BSK_BE3C_IP10: BioMAP Diversity Plus: BE3C Assay for Interferon-gamma inducible Protein 10 (IP10) Biomarker Activity (AID 2283034); conditions: actives raise or lower the signal; primary human bronchial epithelial cells
How it was run: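 IP-10 quantified by ELISA serves as the endpoint. Cells: primary human bronchial epithelium, read 24 h after compound addition. Activity is derived by bidirectional fitting with DMSO as negative control.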

[15] = read-out: Monokine induced gamma interferon (MIG), CXCL9 (gene 4283); test: BSK_BE3C_MIG: BioMAP Diversity Plus: BE3C Assay for Monokine induced gamma interferon (MIG) Biomarker Activity (AID 2283035); conditions: actives raise or lower the signal; primary human bronchial epithelial cells;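 note: MIG protein measured by ELISA in BE3C cultures after 24 h of dosing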
How it was run: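 Dose cells (human primary bronchial epithelial), incubate 24 h, quantify MIG by ELISA, then fit concentration–response in both directions relative to DMSO control.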

[16] = read-out: Transforming growth factor beta 1 (TGFb1), TGFB1 (gene 7040); test: BSK_BE3C_TGFb1: BioMAP Diversity Plus: BE3C Assay for Transforming growth factor beta 1 (TGFb1) Biomarker Activity (AID 2283036;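 note: TGF-b1 protein level measured by ELISA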); conditions: actives raise or lower the signal; primary human bronchial epithelial cells
How it was run: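 Bronchial epithelial primary cells are treated with test chemical, then TGF-b1 is quantified by ELISA after 24 hours. Values derive from bidirectional fitting against DMSO, with cytotoxicity checked by SRB staining in parallel cultures.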

[17] = read-out: Plasminogen activator inhibitor-1 (PAI1), SERPINE1 (gene 5054); test: BSK_BE3C_PAI1: BioMAP Diversity Plus: BE3C Assay for Plasminogen activator inhibitor-1 (PAI1) Biomarker Activity (AID 2283037); conditions: actives raise or lower the signal; primary human bronchial epithelial cells
How it was run: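 Values derive from bidirectional fitting against DMSO baseline of PAI-1 levels, measured by ELISA in human bronchial epithelial cells 24 h after compound addition.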

[18] = read-out: urokinase plasminogen activator (uPA), PLAU (gene 5328); test: BSK_BE3C_uPA: BioMAP Diversity Plus: BE3C Assay for urokinase plasminogen activator (uPA) Biomarker Activity (AID 2283038); conditions: actives raise or lower the signal; primary human bronchial epithelial cells;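 note: uPA protein level quantified by ELISA in cell cultures; uPA read one day after compound addition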
How it was run: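 Using confluent primary human lung bronchial epithelial cultures, we dosed chemicals, waited 24 h, then ran a uPA ELISA, fitting bidirectionally against DMSO.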

[19] = read-out: Urokinase-type plasminogen activator receptor (uPAR), PLAUR (gene 5329); test: BSK_BE3C_uPAR: BioMAP Diversity Plus: BE3C Assay for Urokinase-type plasminogen activator receptor (uPAR) Biomarker Activity (AID 2283039); conditions: actives raise or lower the signal; primary human bronchial epithelial cells;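 note: uPAR protein level measured by ELISA on the cells; cells exposed to compound for one day before measurement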
How it was run: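 Steps: dose human primary bronchial epithelial cells, incubate 24 h, measure uPAR by ELISA, then fit gain- or loss-of-signal response bidirectionally relative to DMSO.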

[20] = read-out: Interleukin-6 (IL6), IL6 (gene 3569); test: BSK_CASM3C_IL6: BioMAP Diversity Plus: CASM3C Assay for Interleukin-6 (IL6) Biomarker Activity for (AID 2283040); conditions: actives raise or lower the signal; primary human coronary artery smooth muscle cells

Measured: AC50

CC(C)OP(OC(C)C)OC(C)C
inactive: all assays above

O=[N+]([O-])c1ccccc1[N+](=O)[O-]
active: [5] 39 µM | [12] 23.6 µM | [13] 13.2 µM
inactive: all other assays above

ClCCNCCCl
inactive: [2]
